Data as given in ChEMBL document CHEMBL3259739, “Synthesis and structure-activity relationship of trisubstituted thiazoles as Cdc7 kinase inhibitors” (Eur J Med Chem, 2014).

Amino acid sequences for entries named in this document (tags omitted). A change or cut given only in a name is not applied to a line headed by its entry.
UniProt Q9UBU7: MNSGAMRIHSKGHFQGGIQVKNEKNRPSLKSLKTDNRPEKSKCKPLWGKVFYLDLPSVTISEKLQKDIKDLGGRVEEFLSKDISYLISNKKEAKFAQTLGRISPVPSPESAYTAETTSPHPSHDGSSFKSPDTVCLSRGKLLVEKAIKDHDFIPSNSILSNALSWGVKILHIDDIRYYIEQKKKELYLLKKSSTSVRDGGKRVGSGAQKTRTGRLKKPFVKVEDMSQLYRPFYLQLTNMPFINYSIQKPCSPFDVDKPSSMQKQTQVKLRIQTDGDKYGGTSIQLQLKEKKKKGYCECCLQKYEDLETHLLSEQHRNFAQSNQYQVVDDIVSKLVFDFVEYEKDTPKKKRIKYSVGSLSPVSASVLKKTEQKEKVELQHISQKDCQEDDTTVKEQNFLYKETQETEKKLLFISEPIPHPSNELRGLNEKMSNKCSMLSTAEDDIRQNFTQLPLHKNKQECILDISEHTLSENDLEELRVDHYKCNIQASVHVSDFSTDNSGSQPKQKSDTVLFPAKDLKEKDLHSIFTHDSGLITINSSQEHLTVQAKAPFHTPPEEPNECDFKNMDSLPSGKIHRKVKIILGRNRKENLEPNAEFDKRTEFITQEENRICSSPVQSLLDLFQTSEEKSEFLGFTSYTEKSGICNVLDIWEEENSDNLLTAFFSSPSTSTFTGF
UniProt O00311: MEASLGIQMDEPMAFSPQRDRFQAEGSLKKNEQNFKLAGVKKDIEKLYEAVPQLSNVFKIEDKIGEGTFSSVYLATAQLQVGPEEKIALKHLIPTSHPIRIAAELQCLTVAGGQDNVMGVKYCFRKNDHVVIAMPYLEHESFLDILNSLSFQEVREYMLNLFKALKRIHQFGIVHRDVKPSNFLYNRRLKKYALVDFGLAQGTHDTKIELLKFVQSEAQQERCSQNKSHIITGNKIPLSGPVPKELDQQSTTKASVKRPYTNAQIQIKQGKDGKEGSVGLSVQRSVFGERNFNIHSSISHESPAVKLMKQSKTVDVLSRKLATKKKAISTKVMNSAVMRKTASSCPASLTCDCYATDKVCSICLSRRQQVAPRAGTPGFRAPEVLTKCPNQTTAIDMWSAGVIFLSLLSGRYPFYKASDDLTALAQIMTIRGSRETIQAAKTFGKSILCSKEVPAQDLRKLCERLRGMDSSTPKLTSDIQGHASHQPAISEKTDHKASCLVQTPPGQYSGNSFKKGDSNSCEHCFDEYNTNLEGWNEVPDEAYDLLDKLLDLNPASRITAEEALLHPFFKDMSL

Target: CDC7/DBF4 (Cell division cycle 7-related protein kinase/Activator of S phase kinase) (Homo sapiens) (UniProt Q9UBU7+O00311)
Test: Ratio of IC50 for Cdc7/Dbf4 in human HCT116 cells to IC50 for Cdc7/Dbf4 (unknown origin)
Format: cell-based
Conditions: HCT-116

## NC(=O)c1sc(-c2ccnc(N)n2)nc1-c1ccc(Cl)cc1Cl
  Ratio IC50: > 30
